This experiment has as its system Mycobacterium tuberculosis. The experiment is described as follows: Activity at Mycobacterium tuberculosis recombinant riboflavin synthase after 30 mins by fluorescence assay. An outline of the steps:
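Recombinant M. tuberculosis riboflavin synthase (1 μM) in 100 mM Tris-HCl pH 7.0, 100 mM NaCl, 5 mM DTT, 2% DMSO. 6,7-Dimethyl-8-ribityllumazine substrate was varied 3–60 μM and inhibitor 0–200 μM. Reactions were started with substrate. Riboflavin formation was monitored at 470 nm for 30 min at 27 °C. Velocity–substrate data for all inhibitor levels were fitted by nonlinear regression to alternative inhibition models.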

The kcat is the maximal rate divided by the concentration of active sites. For `O=C1Nc2ccc(S(=O)(=O)NCCCCC(F)(F)P(=O)(O)O)c3cccc1c23`, the kcat was 0.0025 s⁻¹.

These data come from ChEMBL document CHEMBL1157805, “Virtual screening, selection and development of a benzindolone structural scaffold for inhibition of lumazine synthase” (Bioorg Med Chem, 2010).
